A short description of this data set: Head-out plethysmography (HOP) assay, lung function parameters. The note with it: male Wistar rats, snout-only inhalation, dry powder.

Regarding “(2-{5-Cyano-2-[(R)-6-methoxycarbonyl-7-methyl-3-oxo-8-(3-trifluoromethyl-phenyl)-2,3,5,8-tetrahydro-[1,2,4]triazolo[4,3-a]pyrimidin-5-yl]-phenyl}-ethyl)-trimethyl-ammonium propionate”, the “increase of respiratory rate, peak effect” value (0.6 mg/kg, vs vehicle (lactose)) is listed as 65%. Where the note is “6 mg/kg (high dose), vs vehicle (lactose)”, the “reduction of tidal volume, peak effect” value is reported as 37%. For the same substance, the “increase of PenH compared to vehicle” value by setting is: (high dose 6 mg/kg) around 18 fold; (low dose 0.6 mg/kg) “about 7 fold”. Further, the “% of Reduction of tidal volume” value (low and high dose, peak effect vs vehicle (lactose)) is 37-65%.
